The list shows a part of the results, in another mix than the full data. Some of these compounds have results that are not shown, active ones among them. Active and inactive are the calls of the source.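 Rule for the calls: active = inhibition of at least 50% at 8 µM in the primary screen; inactive = the rest.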

By UniProt entry, the sequences of proteins in these tests, tags left out.
UniProt O15151, whole entry, looked up: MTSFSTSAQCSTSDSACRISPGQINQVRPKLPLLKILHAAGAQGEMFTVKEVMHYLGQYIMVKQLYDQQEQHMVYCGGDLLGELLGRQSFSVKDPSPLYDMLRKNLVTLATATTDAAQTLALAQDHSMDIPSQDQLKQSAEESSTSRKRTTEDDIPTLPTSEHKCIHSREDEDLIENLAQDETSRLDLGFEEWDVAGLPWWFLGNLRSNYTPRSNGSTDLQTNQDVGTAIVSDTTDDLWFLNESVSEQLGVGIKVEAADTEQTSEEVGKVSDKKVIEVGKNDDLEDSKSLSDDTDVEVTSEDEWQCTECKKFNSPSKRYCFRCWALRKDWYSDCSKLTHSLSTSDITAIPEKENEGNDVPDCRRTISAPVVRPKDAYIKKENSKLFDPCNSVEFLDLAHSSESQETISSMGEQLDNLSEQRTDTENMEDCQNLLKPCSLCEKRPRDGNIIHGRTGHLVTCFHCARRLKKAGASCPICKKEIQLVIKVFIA
UniProt Q00987, whole entry, looked up: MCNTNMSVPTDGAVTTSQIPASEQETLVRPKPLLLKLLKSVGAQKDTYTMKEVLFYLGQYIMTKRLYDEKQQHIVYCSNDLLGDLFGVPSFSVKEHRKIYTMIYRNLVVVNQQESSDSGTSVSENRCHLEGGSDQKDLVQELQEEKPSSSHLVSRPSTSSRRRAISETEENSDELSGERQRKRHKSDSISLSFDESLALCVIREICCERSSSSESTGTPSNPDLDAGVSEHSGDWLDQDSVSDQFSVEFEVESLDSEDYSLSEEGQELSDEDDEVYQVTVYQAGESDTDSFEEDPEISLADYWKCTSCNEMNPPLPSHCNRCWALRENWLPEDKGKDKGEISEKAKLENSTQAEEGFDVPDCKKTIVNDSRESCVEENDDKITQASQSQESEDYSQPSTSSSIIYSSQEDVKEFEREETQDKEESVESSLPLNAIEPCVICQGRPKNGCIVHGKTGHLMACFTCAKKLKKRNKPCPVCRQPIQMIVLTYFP

The test has as its target Protein Mdm4 (Homo sapiens) + E3 ubiquitin-protein ligase Mdm2 (Homo sapiens) (UniProt O15151+Q00987). Briefly: disruptors of Mdm2/MdmX RING complex – cell-based, luminescence, split luciferase, SaOS-2, uHTS, primary screen (AID 485346). Conditions: SaOS-2 split-luciferase Mdm2/MdmX complementation, at 8 µM, stronger effect = higher value.
Regarding `C=CCN1CCN(CCOC(=O)C(O)(c2ccccc2)c2ccccc2)CC1`, the inhibition is inactive: 7.81%. With `O=C(NCC1(N2CCCCC2)CCCCC1)c1cc(F)c(F)cc1Cl`, the inhibition is inactive: -8.81%. To `COc1ccc(C(=O)NCC2(N(C)C)CCCCC2)cc1` belongs inactive: 10.7%; to `Cc1cc(C(=O)NCC2(N3CCCCC3)CCCCC2)ccc1[N+](=O)[O-]`, inactive: -55%; to `CCN1CCCC(OC(=O)C2(O)c3ccccc3C=Cc3ccccc32)C1` (centres undefined), inactive: 3.73%. To `O=C(NCC1(N2CCCCC2)CCCCC1)c1cccc(Br)c1` belongs inactive: 1.54%; to `Cc1ccccc1C(=O)NCC1(N2CCCCC2)CCCCC1`, inactive: 14.5%. To `CN(C)C1CCCC1OC(=O)C(O)(c1ccccc1)c1ccccc1` (centres undefined) belongs inactive: -17.4%.

Regarding `CN(C)c1ccc(C(=O)NCC2(N(C)C)CCCCC2)cc1`, the inhibition is inactive: 13.3%. For the compound `CCN(CC)CC(C)C(C)OC(=O)C(O)(c1ccccc1)c1ccccc1` (centres undefined), the inhibition is inactive: 19.8%. To `COc1cc(SC)ccc1C(=O)NCC1(N(C)C)CCCCC1` belongs inactive: 12.9%; to `CC(C)N1C(=O)CC2(CCN(CCOC(=O)C(O)(c3ccccc3)c3ccccc3)CC2)C1=O`, inactive: -5.6%; to `Cc1ccc(C(=O)NCC2(N3CCCCC3)CCCCC2)cc1`, inactive: 17.7%. With `O=C(NCC1(N2CCCCC2)CCCCC1)c1cc([N+](=O)[O-])ccc1Cl` the figure was inactive: 14.4%; with `CN1[C@@H]2CC[C@H]1CC(OC(=O)C(O)(c1ccccc1)c1ccccc1)C2` (some centres undefined), inactive: 1.74%. To `COc1ccc(Br)c(C(=O)NCC2(N3CCCCC3)CCCCC2)c1` belongs inactive: 9.95%; to `CC(C)Oc1ccc(C(=O)NCC2(N(C)C)CCCCC2)cc1`, inactive: -25.2%; to `CN(C)c1cccc(C(=O)NCC2(N(C)C)CCCCC2)c1`, inactive: 8.87%.

As to `O=C(OC1CN2CCC1CC2)C(CO)(c1ccccc1)c1ccccc1` (centres undefined), the inhibition is inactive: 12.4%. To `COc1cccc(C(=O)NCC2(N3CCCCC3)CCCCC2)c1` belongs inactive: -4%. To `COc1ccc(Cl)cc1C(=O)NCC1(N(C)C)CCCCC1` belongs inactive: 8.62%. Take `O=C(NCC1(N2CCCCC2)CCCCC1)c1cccc(Cl)c1`: the inhibition is inactive: 5.42%. With `CN(C)C1(CNC(=O)c2ccc(Br)cc2)CCCCC1` the figure was inactive: -12.7%; with `COc1cc(C(=O)NCC2(N(C)C)CCCCC2)c([N+](=O)[O-])cc1OC`, inactive: -48.7%.

(Values after PubChem BioAssay AID485346 (Sanford-Burnham Center for Chemical Genomics, 2010).)
